Measured values as given in ChEMBL document CHEMBL1144878, “N-(omega-(4-(2-methoxyphenyl)piperazin-1-yl)alkyl)carboxamides as dopamine D2 and D3 receptor ligands” (J Med Chem, 2003).

System: D(3) dopamine receptor (Homo sapiens)
Test: Intrinsic activity for Dopamine receptor D3 was determined

Intrinsic activity	Compound
0.7	COc1ccccc1N1CCN(CCCCNC(=O)/C=C/c2ccc(Cl)cc2)CC1
0.3	COc1ccccc1N1CCN(CCCCNC(=O)c2cc3ccccc3cn2)CC1
